The test system of the data set is 5'-nucleotidase. The note with it: breakdown by 5'-nucleotidase, in words.

We go through one substance from patent EP0821692B1, “IMMUNOPOTENTIATING INOSINE MONOPHOSPHATE 5'-NUCLEOTIDASE RESISTANT DERIVATIVES AND USES THEREOF” (UNIVERSITY OF SOUTH FLORIDA, priority 1995, dated 1996).

This is a selection: effects in other tests are not listed, and their absence says nothing.

With methyl-5'-inosine-phosphonate, the resistance to hydrolysis result is “extremely resistant to hydrolysis”.
